How the values were obtained:
[1] = target: T1, Opioid receptors; mu & delta (Homo sapiens) (UniProt P41143+P35372); experiment: Ratio of IC50 value against mu receptor to that of delta receptor; assay type: protein assay
[2] = target: T1, Opioid receptors; mu & delta (Homo sapiens); experiment: Ratio of the Ki value towards mu receptor to that of delta receptor; assay type: protein assay

Amino acid sequences for entries named in this document (tags omitted).
UniProt P41143, whole entry, looked up: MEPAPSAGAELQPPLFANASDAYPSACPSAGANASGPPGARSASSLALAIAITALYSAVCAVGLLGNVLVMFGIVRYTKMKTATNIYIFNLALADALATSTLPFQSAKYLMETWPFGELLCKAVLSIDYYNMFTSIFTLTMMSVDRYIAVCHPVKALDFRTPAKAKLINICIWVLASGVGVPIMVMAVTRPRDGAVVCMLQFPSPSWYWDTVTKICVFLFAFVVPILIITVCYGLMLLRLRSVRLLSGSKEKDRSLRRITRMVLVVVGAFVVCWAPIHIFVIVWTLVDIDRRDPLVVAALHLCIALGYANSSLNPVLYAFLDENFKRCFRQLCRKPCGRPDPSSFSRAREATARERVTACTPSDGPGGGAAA
UniProt P35372, whole entry, looked up: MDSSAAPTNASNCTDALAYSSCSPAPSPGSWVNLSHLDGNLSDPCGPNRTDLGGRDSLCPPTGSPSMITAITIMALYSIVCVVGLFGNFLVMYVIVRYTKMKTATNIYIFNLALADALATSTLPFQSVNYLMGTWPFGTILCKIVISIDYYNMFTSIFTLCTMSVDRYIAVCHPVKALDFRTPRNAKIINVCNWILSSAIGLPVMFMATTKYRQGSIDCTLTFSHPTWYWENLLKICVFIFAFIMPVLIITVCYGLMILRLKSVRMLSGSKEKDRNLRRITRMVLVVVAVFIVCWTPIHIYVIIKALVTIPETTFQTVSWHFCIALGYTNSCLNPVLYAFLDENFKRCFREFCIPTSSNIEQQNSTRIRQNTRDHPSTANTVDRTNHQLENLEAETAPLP

CC1(C)SSC[C@H](NC(=O)[C@@H](N)Cc2ccc(O)cc2)C(=O)N[C@H](Cc2ccccc2)C(=O)N[C@@H]1C(=O)O (stereo in doubt; 3)
Ratio [1]: 72
Ratio [2]: 81

CC1(C)SSC[C@H](NC(=O)[C@@H](N)Cc2ccc(O)cc2)C(=O)N[C@H](Cc2ccccc2)C(=O)N[C@@H]1C(=O)O (stereo in doubt; 4)
Ratio [1]: > 3090
Ratio [2]: 2100

CC1(C)SSC[C@H](NC(=O)[C@@H](N)Cc2ccc(O)cc2)C(=O)N[C@H](Cc2ccccc2)C(=O)N[C@@H]1C(=O)O (stereo in doubt; 5)
Ratio [1]: 182
Ratio [2]: 170

CC1(C)SSC[C@H](NC(=O)[C@@H](N)Cc2ccc(O)cc2)C(=O)N[C@@H](Cc2ccccc2)C(=O)N[C@@H]1C(=O)O
Ratio [1]: 110
Ratio [2]: 69

CC1(C)SSC[C@H](NC(=O)[C@@H](N)Cc2ccc(O)cc2)C(=O)N[C@H](Cc2ccccc2)C(=O)N[C@@H]1C(=O)O (stereo in doubt; 6)
Ratio [2]: 36
